The data set relates to patients with melanoma. To be noted: 17 patients.

In the case of `CC(=O)O[C@H]1C(=O)[C@@]2(C)[C@H]([C@H](OC(=O)c3ccccc3)[C@]3(O)C[C@H](OC(=O)[C@H](O)[C@@H](NC(=O)c4ccccc4)c4ccccc4)C(C)=C1C3(C)C)[C@]1(OC(C)=O)CO[C@@H]1C[C@@H]2O` [paclitaxel], under “90 mg/M^2 Q4 days x3”, the “Grade 3 sensory changes (objective sensory loss or paresthesias interfering with function)” value turned out to be 1 patient. In addition, under “90 mg/M^2 Q4 days x3 (270 mg/M^2 q 21 days)”, the “Grade 4 toxicity, number of times” value is reported as 7 times.
